Earlier results as cited in patent publication US9918975B2, “Method for improving dissolution of anticoagulant agent” (Daiichi Sankyo Company, Limited, priority 2010, dated 2018).

Amino acid sequences for entries named in this document (tags omitted). Residues count along the entry.
UniProt P00742, 41-179 partner limits assumed: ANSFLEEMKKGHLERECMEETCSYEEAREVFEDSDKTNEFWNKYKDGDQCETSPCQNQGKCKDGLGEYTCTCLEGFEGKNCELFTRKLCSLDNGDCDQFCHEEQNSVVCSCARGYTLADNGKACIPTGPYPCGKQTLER
UniProt P00742, 235-488 limits assumed: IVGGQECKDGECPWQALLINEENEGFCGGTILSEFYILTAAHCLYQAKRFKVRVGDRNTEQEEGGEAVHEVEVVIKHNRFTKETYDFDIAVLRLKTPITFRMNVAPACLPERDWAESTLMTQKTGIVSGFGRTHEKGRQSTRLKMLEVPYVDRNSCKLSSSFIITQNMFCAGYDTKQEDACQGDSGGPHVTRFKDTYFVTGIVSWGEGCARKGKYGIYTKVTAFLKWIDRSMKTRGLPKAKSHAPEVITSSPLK

Molecular target: activated blood coagulation factor X (Homo sapiens, UniProt P00742)
Conditions: Patent Documents 1 to 9; cited from earlier work

## CN1CCc2nc(C(=O)N[C@@H]3C[C@@H](C(=O)N(C)C)CC[C@@H]3NC(=O)C(=O)Nc3ccc(Cl)cn3)sc2C1 [compound I, N^1-(5-chloropyridin-2-yl)-N^2-((1S,2R,4S)-4-[(dimethylamino)carbonyl]-2-{[(5-methyl-4,5,6,7-tetrahydrothiazolo[5,4-c]pyridin-2-yl)carbonyl]amino}cyclohexyl)ethanediamide]
  inhibitory effect on activated blood coagulation factor X: potent inhibitory effect
